From patent US11091488B2 (MISSION THERAPEUTICS LIMITED, priority 2015, dated 2021) come the findings set out here.

Amino acid sequences for entries named in this document (tags omitted). Residues count along the entry.
UniProt Q70CQ3, 57-517 limits assumed: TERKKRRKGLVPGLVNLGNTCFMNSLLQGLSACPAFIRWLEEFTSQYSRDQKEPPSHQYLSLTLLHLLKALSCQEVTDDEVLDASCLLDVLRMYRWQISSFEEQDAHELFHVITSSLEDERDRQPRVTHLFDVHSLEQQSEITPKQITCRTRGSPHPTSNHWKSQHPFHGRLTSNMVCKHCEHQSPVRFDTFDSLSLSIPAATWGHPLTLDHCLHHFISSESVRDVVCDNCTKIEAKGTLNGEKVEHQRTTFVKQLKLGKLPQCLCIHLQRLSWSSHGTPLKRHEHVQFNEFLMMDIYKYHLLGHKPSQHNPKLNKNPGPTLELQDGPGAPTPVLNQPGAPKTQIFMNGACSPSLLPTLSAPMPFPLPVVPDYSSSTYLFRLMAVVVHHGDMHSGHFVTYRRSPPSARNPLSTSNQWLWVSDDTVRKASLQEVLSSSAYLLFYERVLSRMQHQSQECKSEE

The assay has as its target USP30 (Homo sapiens (Human), UniProt Q70CQ3). Nature of the assay: USP30 biochemical IC50 assay. The following applies: read-out: IC50 range; fluorescence polarisation, TAMRA labelled peptide linked to ubiquitin; 30 min pre-incubation, read after 2 hr. (Fluorescence polarisation rises when a labelled molecule tumbles more slowly, as on binding a larger partner.)

One may read the IC50 as the concentration that gives 50% inhibition. For `Cn1c2ccccc2c2cc(N3CCN([C@@H]4CCN(C#N)C4)S3(=O)=O)ccc21`, the IC50 was under 100 nM.
